Laboratory results as given in ChEMBL document CHEMBL1129740, “Structure-activity relationships of a series of substituted benzamides: potent D2/5-HT2 antagonists and 5-HT1a agonists as neuroleptic agents” (J Med Chem, 1996).

Chains of the proteins cited; added tags and fusions are not shown.
UniProt P19327, whole entry: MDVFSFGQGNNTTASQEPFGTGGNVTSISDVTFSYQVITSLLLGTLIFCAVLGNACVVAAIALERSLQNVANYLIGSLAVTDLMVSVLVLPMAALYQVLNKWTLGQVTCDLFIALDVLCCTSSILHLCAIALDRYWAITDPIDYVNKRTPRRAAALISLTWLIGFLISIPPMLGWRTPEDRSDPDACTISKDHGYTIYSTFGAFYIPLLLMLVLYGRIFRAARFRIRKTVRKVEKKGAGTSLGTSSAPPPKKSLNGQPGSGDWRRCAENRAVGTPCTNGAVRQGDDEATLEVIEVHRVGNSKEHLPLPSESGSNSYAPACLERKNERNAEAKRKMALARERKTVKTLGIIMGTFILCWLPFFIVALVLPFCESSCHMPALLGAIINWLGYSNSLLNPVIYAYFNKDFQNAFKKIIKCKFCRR

Biological target: 5-hydroxytryptamine receptor 1A (Rattus norvegicus, UniProt P19327)

IC50: 5.6 nM
Compound: CCOC(=O)Nc1ccccc1C(=O)NCCCCN1CCN(c2nsc3ccccc23)CC1.Cl
